Measured values taken from patent US10335367B2, “Use of selected anticholinergic zwitterions” (Bodor Laboratories, Inc., priority 2015, dated 2019).
“And” between values parts separate entries of the source, which are not always exact repeats. Equal values may be shown once.

Tested on: human eyes
Test: Mydriatic study of (2R)SGA & Tropicamide in human eyes (topical, pupil diameter)
Assay type: in vivo
Conditions: for recovery time (pupil within less than 1 mm of the control): 100 μL
[1] = 1%, 0.1 ml, Subject 1 Right eye, 120 hr
[2] = 1%, 0.1 ml, Subject 1 Right eye, 144 hr
[3] = 1%, 0.1 ml, Subject 1 Right eye, 168 hr
[4] = 1%, 0.1 ml, Subject 2 Left Eye, 0 hr
[5] = 1%, 0.1 ml, Subject 2 Left Eye, 0.25 hr
[6] = 1%, 0.1 ml, Subject 2 Left Eye, 0.5 hr
[7] = 1%, 0.1 ml, Subject 2 Left Eye, 0.75 hr
[8] = 1%, 0.1 ml, Subject 2 Left Eye, 1 hr
[9] = 1%, 0.1 ml, Subject 2 Left Eye, 1.5 hr
[10] = 1%, 0.1 ml, Subject 2 Left Eye, 2 hr
[11] = 1%, 0.1 ml, Subject 2 Left Eye, 3 hr
[12] = 1%, 0.1 ml, Subject 2 Left Eye, 4 hr
[13] = 1%, 0.1 ml, Subject 2 Left Eye, 5 hr
[14] = 1%, 0.1 ml, Subject 2 Left Eye, 6 hr
[15] = 1%, 0.1 ml, Subject 2 Left Eye, 7 hr
[16] = 1%, 0.1 ml, Subject 2 Left Eye, 8 hr
[17] = 1%, 0.1 ml, Subject 2 Left Eye, 12 hr
[18] = 1%, 0.1 ml, Subject 2 Left Eye, 24 hr
[19] = 1%, 0.1 ml, Subject 2 Left Eye, 36 hr
[20] = 1%, 0.1 ml, Subject 2 Left Eye, 48 hr
[21] = 1%, 0.1 ml, Subject 2 Left Eye, 72 hr
[22] = 1%, 0.1 ml, Subject 2 Left Eye, 96 hr
[23] = 1%, 0.1 ml, Subject 2 Left Eye, 120 hr
[24] = 1%, 0.1 ml, Subject 2 Left Eye, 144 hr
[25] = 1%, 0.1 ml, Subject 2 Left Eye, 168 hr
[26] = 1%, 0.1 ml, Subject 2 Right eye, 0 hr
[27] = 1%, 0.1 ml, Subject 2 Right eye, 0.25 hr
[28] = 1%, 0.1 ml, Subject 2 Right eye, 0.5 hr
[29] = 1%, 0.1 ml, Subject 2 Right eye, 0.75 hr
[30] = 1%, 0.1 ml, Subject 2 Right eye, 1 hr
[31] = 1%, 0.1 ml, Subject 2 Right eye, 1.5 hr
[32] = 1%, 0.1 ml, Subject 2 Right eye, 2 hr
[33] = 1%, 0.1 ml, Subject 2 Right eye, 3 hr
[34] = 1%, 0.1 ml, Subject 2 Right eye, 4 hr
[35] = 1%, 0.1 ml, Subject 2 Right eye, 5 hr
[36] = 1%, 0.1 ml, Subject 2 Right eye, 6 hr
[37] = 1%, 0.1 ml, Subject 2 Right eye, 7 hr
[38] = 1%, 0.1 ml, Subject 2 Right eye, 8 hr
[39] = 1%, 0.1 ml, Subject 2 Right eye, 12 hr
[40] = 1%, 0.1 ml, Subject 2 Right eye, 24 hr
[41] = 1%, 0.1 ml, Subject 2 Right eye, 36 hr
[42] = 1%, 0.1 ml, Subject 2 Right eye, 48 hr
[43] = 1%, 0.1 ml, Subject 2 Right eye, 72 hr
[44] = 1%, 0.1 ml, Subject 2 Right eye, 96 hr
[45] = 1%, 0.1 ml, Subject 2 Right eye, 120 hr
[46] = 1%, 0.1 ml, Subject 2 Right eye, 144 hr
[47] = 1%, 0.1 ml, Subject 2 Right eye, 168 hr

C[N+]1(CC(=O)[O-])CCC(OC(=O)[C@](O)(c2ccccc2)C2CCCC2)C1 (stereo partly drawn)
Pupil Size -Control (1%, 0.1 ml, Subject 1 Right eye, 96 hr): 2 | % dilation (% Change in pupil size) [1]: 50% | Pupil Size [1]: 4.5 mm | Pupil Size -Control [1]: 1.5 | % dilation (% Change in pupil size) [2]: 33% and 33.3% | Pupil Size [2]: 4 mm | Pupil Size -Control [2]: 1 | % dilation (% Change in pupil size) [3]: 17% and 16.7% | Pupil Size [3]: 3.5 mm | Pupil Size -Control [3]: 0.5 | AUC0-168 of % change in pupil size (1%, 0.1 ml, Subject 2 Left Eye): 4743.8 | % dilation (% Change in pupil size) [4]: 0% | Pupil Size [4]: 3 mm | Pupil Size -Control [4]: 0 | % dilation (% Change in pupil size) [5]: 33% and 33.3% | Pupil Size [5]: 4 mm | Pupil Size -Control [5]: 1 | % dilation (% Change in pupil size) [6]: 117% and 116.7% | Pupil Size [6]: 6.5 mm | Pupil Size -Control [6]: 3.5 | % dilation (% Change in pupil size) [7]: 117% and 116.7% | Pupil Size [7]: 6.5 mm | Pupil Size -Control [7]: 3.5 | % dilation (% Change in pupil size) [8]: 117% and 116.7% | Pupil Size [8]: 6.5 mm | Pupil Size -Control [8]: 3.5 | % dilation (% Change in pupil size) [9]: 117% and 116.7% | Pupil Size [9]: 6.5 mm | Pupil Size -Control [9]: 3.5 | % dilation (% Change in pupil size) [10]: 117% and 116.7% | Pupil Size [10]: 6.5 mm | Pupil Size -Control [10]: 3.5 | % dilation (% Change in pupil size) [11]: 133% and 133.3% | Pupil Size [11]: 7 mm | Pupil Size -Control [11]: 4 | % dilation (% Change in pupil size) [12]: 133% and 133.3% | Pupil Size [12]: 7 mm | Pupil Size -Control [12]: 4 | % dilation (% Change in pupil size) [13]: 125% | Pupil Size [13]: 6.75 mm | Pupil Size -Control [13]: 3.75 | % dilation (% Change in pupil size) [14]: 125% | Pupil Size [14]: 6.75 mm | Pupil Size -Control [14]: 3.75 | % dilation (% Change in pupil size) [15]: 125% | Pupil Size [15]: 6.75 mm | Pupil Size -Control [15]: 3.75 | % dilation (% Change in pupil size) [16]: 125% | Pupil Size [16]: 6.75 mm | Pupil Size -Control [16]: 3.75 | % dilation (% Change in pupil size) [17]: 117% and 116.7% | Pupil Size [17]: 6.5 mm | Pupil Size -Control [17]: 3.5 | % dilation (% Change in pupil size) [18]: 83% and 83.3% | Pupil Size [18]: 5.5 mm | Pupil Size -Control [18]: 2.5 | % dilation (% Change in pupil size) [19]: 50% | Pupil Size [19]: 4.5 mm | Pupil Size -Control [19]: 1.5 | % dilation (% Change in pupil size) [20]: 33% and 33.3% | Pupil Size [20]: 4 mm | Pupil Size -Control [20]: 1 | % dilation (% Change in pupil size) [21]: 17% and 16.7% | Pupil Size [21]: 3.5 mm | Pupil Size -Control [21]: 0.5 | % dilation (% Change in pupil size) [22]: 0% | Pupil Size [22]: 3 mm | Pupil Size -Control [22]: 0 | % dilation (% Change in pupil size) [23]: 0% | Pupil Size [23]: 3 mm | Pupil Size -Control [23]: 0 | % dilation (% Change in pupil size) [24]: 0% | Pupil Size [24]: 3 mm | Pupil Size -Control [24]: 0 | % dilation (% Change in pupil size) [25]: 0% | Pupil Size [25]: 3 mm | Pupil Size -Control [25]: 0 | AUC0-168 of % change in pupil size (1%, 0.1 ml, Subject 2 Right eye): 3137.5 | % dilation (% Change in pupil size) [26]: 0% | Pupil Size [26]: 3 mm | Pupil Size -Control [26]: 0 | % dilation (% Change in pupil size) [27]: 33% and 33.3% | Pupil Size [27]: 4 mm | Pupil Size -Control [27]: 1 | % dilation (% Change in pupil size) [28]: 100% | Pupil Size [28]: 6 mm | Pupil Size -Control [28]: 3 | % dilation (% Change in pupil size) [29]: 100% | Pupil Size [29]: 6 mm | Pupil Size -Control [29]: 3 | % dilation (% Change in pupil size) [30]: 100% | Pupil Size [30]: 6 mm | Pupil Size -Control [30]: 3 | % dilation (% Change in pupil size) [31]: 100% | Pupil Size [31]: 6 mm | Pupil Size -Control [31]: 3 | % dilation (% Change in pupil size) [32]: 100% | Pupil Size [32]: 6 mm | Pupil Size -Control [32]: 3 | % dilation (% Change in pupil size) [33]: 100% | Pupil Size [33]: 6 mm | Pupil Size -Control [33]: 3 | % dilation (% Change in pupil size) [34]: 100% | Pupil Size [34]: 6 mm | Pupil Size -Control [34]: 3 | % dilation (% Change in pupil size) [35]: 100% | Pupil Size [35]: 6 mm | Pupil Size -Control [35]: 3 | % dilation (% Change in pupil size) [36]: 100% | Pupil Size [36]: 6 mm | Pupil Size -Control [36]: 3 | % dilation (% Change in pupil size) [37]: 100% | Pupil Size [37]: 6 mm | Pupil Size -Control [37]: 3 | % dilation (% Change in pupil size) [38]: 100% | Pupil Size [38]: 6 mm | Pupil Size -Control [38]: 3 | % dilation (% Change in pupil size) [39]: 83% and 83.3% | Pupil Size [39]: 5.5 mm | Pupil Size -Control [39]: 2.5 | % dilation (% Change in pupil size) [40]: 50% | Pupil Size [40]: 4.5 mm | Pupil Size -Control [40]: 1.5 | % dilation (% Change in pupil size) [41]: 17% and 16.7% | Pupil Size [41]: 3.5 mm | Pupil Size -Control [41]: 0.5 | % dilation (% Change in pupil size) [42]: 17% and 16.7% | Pupil Size [42]: 3.5 mm | Pupil Size -Control [42]: 0.5 | % dilation (% Change in pupil size) [43]: 17% and 16.7% | Pupil Size [43]: 3.5 mm | Pupil Size -Control [43]: 0.5 | % dilation (% Change in pupil size) [44]: 0% | Pupil Size [44]: 3 mm | Pupil Size -Control [44]: 0 | % dilation (% Change in pupil size) [45]: 0% | Pupil Size [45]: 3 mm | Pupil Size -Control [45]: 0 | % dilation (% Change in pupil size) [46]: 0% | Pupil Size [46]: 3 mm | Pupil Size -Control [46]: 0 | % dilation (% Change in pupil size) [47]: 0% | Pupil Size [47]: 3 mm | Pupil Size -Control [47]: 0 | AUC0-168 (1%, 0.1 ml, mean of 2 subjects): 7436.5 (%)xhr | duration of action (1%, 100 μL topical): much longer than in the case of tropicamide | local mydriatic activity (1%, 100 μL topical): good local mydriatic activity that was similar to tropicamide | recovery time (pupil within less than 1 mm of the control) (1%, subject 1): approximately 120 hours | recovery time (pupil within less than 1 mm of the control) (1%, subject 2): 36 h | uncomfortable sensations in human eyes (topical): did not cause any uncomfortable sensations
